This assay has as its target recombinant p34-cdc2/cyclin B1 (Homo sapiens, UniProt P06493). Description: Phosphorylation of biotinylated Aβ peptides by recombinant p34-cdc2/cyclin B1 (32P incorporation).

Amino acid sequences for entries named in this document (tags omitted).
UniProt P06493, whole entry: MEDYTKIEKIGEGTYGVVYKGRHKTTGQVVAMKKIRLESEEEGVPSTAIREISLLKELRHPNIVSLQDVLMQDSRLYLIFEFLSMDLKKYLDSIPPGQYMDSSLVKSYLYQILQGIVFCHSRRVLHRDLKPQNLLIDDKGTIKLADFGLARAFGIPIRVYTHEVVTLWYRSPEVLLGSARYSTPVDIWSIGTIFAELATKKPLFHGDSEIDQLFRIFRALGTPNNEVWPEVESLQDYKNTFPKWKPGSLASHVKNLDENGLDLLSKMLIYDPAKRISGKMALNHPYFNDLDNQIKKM

Take Aβ 12-28: Aβ fragment, residues 12-28: the “inhibition of phosphorylation of Aβ” value is reported as “inhibited”.

For the origin of these results see patent US20040072753A1, “Peptides for use in the treatment of alzheimer's disease” (priority 2000, published 2004).
